Columns and labels:
[1] = target: High affinity cGMP-specific 3',5'-cyclic phosphodiesterase 9A (Homo sapiens, UniProt O76083); test: Inhibition of PDE9A2
[2] = target: Dual 3',5'-cyclic-AMP and -GMP phosphodiesterase 11A (Homo sapiens, UniProt Q9HCR9); test: Inhibition of PDE11A4
[3] = target: Dual specificity calcium/calmodulin-dependent 3',5'-cyclic nucleotide phosphodiesterase 1A (Homo sapiens, UniProt P54750); test: Inhibition of PDE1A
[4] = target: High affinity cAMP-specific and IBMX-insensitive 3',5'-cyclic phosphodiesterase 8A (Homo sapiens, UniProt O60658); test: Inhibition of PDE8A1

Sequences of proteins named here, by UniProt entry; tags and fusion partners are left off. A change or cut given only in a name is not applied to a line headed by its entry.
UniProt O76083: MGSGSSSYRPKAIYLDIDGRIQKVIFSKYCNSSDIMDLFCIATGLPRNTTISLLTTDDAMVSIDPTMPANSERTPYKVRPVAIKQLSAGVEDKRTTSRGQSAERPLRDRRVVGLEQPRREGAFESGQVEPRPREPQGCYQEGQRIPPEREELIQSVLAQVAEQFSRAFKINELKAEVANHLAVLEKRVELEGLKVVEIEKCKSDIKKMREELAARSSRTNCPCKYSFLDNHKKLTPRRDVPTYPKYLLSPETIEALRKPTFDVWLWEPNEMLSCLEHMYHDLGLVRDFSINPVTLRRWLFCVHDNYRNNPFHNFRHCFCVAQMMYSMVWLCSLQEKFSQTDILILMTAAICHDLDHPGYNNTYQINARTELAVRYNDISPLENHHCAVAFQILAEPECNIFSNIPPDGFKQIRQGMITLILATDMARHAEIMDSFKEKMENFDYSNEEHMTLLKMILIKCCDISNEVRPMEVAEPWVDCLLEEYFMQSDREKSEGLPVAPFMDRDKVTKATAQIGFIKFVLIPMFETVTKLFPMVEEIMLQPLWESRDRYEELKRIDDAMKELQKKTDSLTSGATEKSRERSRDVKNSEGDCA
UniProt Q9HCR9: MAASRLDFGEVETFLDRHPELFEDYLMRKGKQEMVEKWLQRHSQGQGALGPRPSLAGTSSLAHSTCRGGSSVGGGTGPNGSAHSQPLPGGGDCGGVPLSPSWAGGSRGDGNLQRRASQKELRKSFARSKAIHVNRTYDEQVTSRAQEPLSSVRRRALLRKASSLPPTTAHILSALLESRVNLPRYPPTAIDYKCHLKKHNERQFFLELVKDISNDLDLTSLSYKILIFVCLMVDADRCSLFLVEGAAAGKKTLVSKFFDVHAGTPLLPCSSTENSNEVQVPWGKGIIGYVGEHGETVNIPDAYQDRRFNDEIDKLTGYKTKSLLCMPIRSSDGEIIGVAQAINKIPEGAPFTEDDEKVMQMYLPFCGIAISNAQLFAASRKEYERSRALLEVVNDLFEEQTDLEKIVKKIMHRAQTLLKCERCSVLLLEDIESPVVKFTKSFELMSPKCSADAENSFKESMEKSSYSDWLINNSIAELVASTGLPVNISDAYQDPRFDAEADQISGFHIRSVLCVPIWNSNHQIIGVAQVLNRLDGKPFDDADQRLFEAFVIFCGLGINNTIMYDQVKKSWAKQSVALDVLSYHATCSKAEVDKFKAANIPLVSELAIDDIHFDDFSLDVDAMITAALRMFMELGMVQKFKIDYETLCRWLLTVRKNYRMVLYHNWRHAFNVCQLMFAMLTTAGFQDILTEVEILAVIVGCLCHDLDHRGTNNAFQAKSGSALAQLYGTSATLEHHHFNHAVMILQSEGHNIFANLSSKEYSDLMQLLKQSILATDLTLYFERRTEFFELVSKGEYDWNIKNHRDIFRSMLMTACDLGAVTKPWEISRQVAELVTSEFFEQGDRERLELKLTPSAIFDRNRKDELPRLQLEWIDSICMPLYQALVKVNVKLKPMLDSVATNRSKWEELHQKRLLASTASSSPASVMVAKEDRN
UniProt P54750: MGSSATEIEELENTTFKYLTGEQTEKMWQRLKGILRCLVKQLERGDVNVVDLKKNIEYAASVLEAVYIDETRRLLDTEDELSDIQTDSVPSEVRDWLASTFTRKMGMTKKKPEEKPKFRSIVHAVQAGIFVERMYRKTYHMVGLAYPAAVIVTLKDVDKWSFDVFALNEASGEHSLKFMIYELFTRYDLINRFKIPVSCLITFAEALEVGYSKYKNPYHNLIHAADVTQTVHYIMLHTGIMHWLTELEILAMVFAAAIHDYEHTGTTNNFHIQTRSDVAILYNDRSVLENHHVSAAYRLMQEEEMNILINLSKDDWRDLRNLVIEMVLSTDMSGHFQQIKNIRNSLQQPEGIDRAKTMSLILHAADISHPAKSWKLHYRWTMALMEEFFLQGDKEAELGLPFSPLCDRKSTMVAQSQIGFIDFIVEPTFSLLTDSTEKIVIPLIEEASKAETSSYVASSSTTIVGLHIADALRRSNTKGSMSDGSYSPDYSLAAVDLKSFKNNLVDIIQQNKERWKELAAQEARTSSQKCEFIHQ
UniProt O60658: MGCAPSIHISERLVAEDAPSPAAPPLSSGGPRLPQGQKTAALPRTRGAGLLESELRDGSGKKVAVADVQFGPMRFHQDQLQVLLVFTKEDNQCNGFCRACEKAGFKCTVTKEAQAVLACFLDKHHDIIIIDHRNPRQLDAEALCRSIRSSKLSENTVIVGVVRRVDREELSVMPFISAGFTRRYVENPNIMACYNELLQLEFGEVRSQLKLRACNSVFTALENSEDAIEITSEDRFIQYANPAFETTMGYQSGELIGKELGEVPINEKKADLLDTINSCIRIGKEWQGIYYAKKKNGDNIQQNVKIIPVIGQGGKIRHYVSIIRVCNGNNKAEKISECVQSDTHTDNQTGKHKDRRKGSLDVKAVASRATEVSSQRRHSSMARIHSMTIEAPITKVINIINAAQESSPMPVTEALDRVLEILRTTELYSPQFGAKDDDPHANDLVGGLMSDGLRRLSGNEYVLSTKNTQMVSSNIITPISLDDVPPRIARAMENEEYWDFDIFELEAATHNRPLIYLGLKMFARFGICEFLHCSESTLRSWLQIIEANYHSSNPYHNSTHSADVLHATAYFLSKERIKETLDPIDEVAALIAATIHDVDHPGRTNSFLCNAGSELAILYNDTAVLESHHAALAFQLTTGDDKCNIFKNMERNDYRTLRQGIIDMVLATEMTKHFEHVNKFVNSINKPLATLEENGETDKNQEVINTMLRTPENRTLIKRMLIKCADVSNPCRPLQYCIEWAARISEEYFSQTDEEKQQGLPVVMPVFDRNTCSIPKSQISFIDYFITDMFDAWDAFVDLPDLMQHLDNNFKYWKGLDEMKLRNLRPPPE

| Structure (SMILES) | IC50 [1] | IC50 [2] | IC50 [3] | IC50 [4] |
| --- | --- | --- | --- | --- |
| COc1ccc(OC)c(-c2nnc3n2N=C(c2ccc(OC)c(OC)c2)CS3)c1 | Not Active | Not Active | Not Active | – |
| COc1ccc(OC)c(-c2nnc3ccc(-c4ccc(OC)c(O[C@@H]5CCOC5)c4)nn23)c1 | Not Active | Not Active | – | Not Active |
| COc1ccc(OC)c(-c2nnc3n2N=C(c2ccc(OC)c(O[C@@H]4CCOC4)c2)CS3)c1 | Not Active | Not Active | – | Not Active |
| COc1ccc(C2CNC(=O)C2)cc1OC1CCCC1 (stereo not given) [ROLIPRAM] | – | – | Not Active | – |
